By UniProt entry, the sequences of proteins in these tests, tags left out. Where a name states a change or a piece, a line headed by the entry shows the natural chain unless it says otherwise.
UniProt P41145: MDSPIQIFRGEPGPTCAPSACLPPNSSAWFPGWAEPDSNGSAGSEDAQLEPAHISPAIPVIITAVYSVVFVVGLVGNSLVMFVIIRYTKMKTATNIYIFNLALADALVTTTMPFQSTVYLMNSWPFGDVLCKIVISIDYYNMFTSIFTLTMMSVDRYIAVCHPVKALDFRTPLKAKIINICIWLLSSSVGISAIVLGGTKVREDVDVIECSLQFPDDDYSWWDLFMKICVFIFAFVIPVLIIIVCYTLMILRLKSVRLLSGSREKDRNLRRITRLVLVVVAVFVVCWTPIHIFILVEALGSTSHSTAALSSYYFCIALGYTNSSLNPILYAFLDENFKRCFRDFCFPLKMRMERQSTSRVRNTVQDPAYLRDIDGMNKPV

In patent US12360111B2, “G protein-coupled receptor screening systems” (The University of North Carolina at Chapel Hill, priority 2018, dated 2025):

Biological target: KOR, Gαi/o-class TRUPATH sensors (Homo sapiens, UniProt P41145)
Test: TRUPATH profiling of KOR agonists
Type: cell-based

## CO[C@]12CC[C@@]3(C[C@@H]1C(C)(C)O)[C@H]1Cc4ccc(O)c5c4[C@@]3(CCN1CC1CC1)[C@H]2O5
  efficacy across transducers (in words): exhibited efficacy bias
